Read-outs that look alike come from different tables or passages of the source.
Key:
[1] = tested on: A2780/CP cells; test: Cell growth, crystal violet assay, A2780/CP; assay type: cell-based; conditions: Homo sapiens, A2780C/P, 72 h, read-out: Cellular IC50 values A2780/CP
[2] = tested on: IGROV-1 cells; test: cells; assay type: cell-based, human
[3] = tested on: HT29 cells; test: Cell growth, crystal violet assay, HT29; assay type: cell-based; conditions: Homo sapiens, HT-29, 72 h, read-out: Cellular IC50 values HT29
[4] = tested on: HCT116 cells; test: Cell growth, crystal violet assay, HCT116; assay type: cell-based; conditions: Homo sapiens, HCT-116, 72 h, read-out: Cellular IC50 values HCT116
[5] = tested on: A2780 cells; test: Cell growth, crystal violet assay, A2780; conditions: Homo sapiens, A2780, 72 h, read-out: Cellular IC50 values A2780
[6] = Homo sapiens, IGROV-1, 72 h, read-out: Cellular IC50 values IGROV-1, 72 h-treatment, compound alone

| SMILES | IC50 [1] [µM] | IC50 [2, 6] [µM] | IC50 [3] [µM] | IC50 [4] [µM] | IC50 [5] [µM] | IC50 ([2]; read-out: Cellular IC50 values IGROV-1, 72 h-treatment, compound alone) [µM] |
| --- | --- | --- | --- | --- | --- | --- |
| O=c1[nH]cc(F)c(=O)[nH]1 [Compound 5-FU, 5-fluorouracil, reference compound] | 11.6 ± 1.2 | 16.9 ± 1 | 14.2 ± 3 | 13.5 ± 1.5 | 8.5 ± 0.8 | – |
| NC(=O)c1ccc(NC(=O)C(Sc2ccc([N+](=O)[O-])cc2)c2ccccc2)cc1 (stereo not drawn) [Compound E5, 2-Phenyl-2-(4-nitrophenylthio)-N-(4-carboxamidophenyl)acetamide] | 34.3 ± 5 | – | 70.5 ± 1.6 | 61.8 ± 1.8 | 28.8 ± 4 | 63.9 ± 8 |
| CS(=O)(=O)c1ccc2nc(NC(=O)C(Sc3ccc([N+](=O)[O-])cc3)c3ccccc3)sc2c1 (stereo not drawn) [Compound E7, phenyl-2-(4-nitrophenylthio)-N-(6-methanesulfonylbenzothiazol-2-yl)acetamide] | 21.5 ± 3 | 37.4 ± 6 | 34.5 ± 3 | 35.5 ± 0.3 | 10.1 ± 0.3 | – |

From PMC11602703 (Frontiers in Pharmacology, 2024)
